Values of other authors, collected in patent US12257245B2, “Methods and compositions for inhibition of EGF/EGFR pathway in combination with anaplastic lymphoma kinase inhibitors” (In3Bio Ltd., priority 2018, dated 2025).

Columns and labels:
ALK-positive NSLC [1] = conditions: phase III versus standard chemotherapy; cited from earlier work
[2] = tested on: ALK-fusion-positive NSCLC; conditions: cited from earlier work
ALK-positive NSLC [3] = conditions: cited from earlier work
PC9 xenografts = conditions: cited from earlier work
[4] = tested on: total EGFR in EGFR-mut cells such as PC9, H1975 or H3255; conditions: cetuximab 1 to 2 hours; anti-EGF VacAbs 24 hours of incubation; cited from earlier work
[5] = ALK-positive treatment-naive patients

| Molecule | orr (ALK-positive NSLC [1]) [%] | pfs (ALK-positive NSLC [1]) [months] | median PFS [2] [months] | mpfs (ALK-positive NSLC [3]; [5]) [months] | orr (ALK-positive NSLC [3]; [5]) [%] | mpfs hr (ALK-positive NSLC [3]; crizotinib versus chemotherapy) | overall survival versus chemotherapy (ALK-positive NSLC [3]; in vivo) | enhancement of the effects of gefitinib (PC9 xenografts) | levels of total EGFR (receptor down-regulation) [4] |
| --- | --- | --- | --- | --- | --- | --- | --- | --- | --- |
| C[C@@H](Oc1cc(-c2cnn(C3CCNCC3)c2)cnc1N)c1c(Cl)ccc(F)c1Cl [Crizotinib] | 65 | 7.7 | 13 | 10.9 | 74 | 0.45 | No differences | – | – |
| Cetuximab: anti-EGFR monoclonal antibody | – | – | – | – | – | – | – | failed to enhance the effects of gefitinib | markedly decrease |

Where two headings read alike, the source gives them in different places.
